Assay results from US5648237A, “Expression of functional antibody fragments” (Genentech, Inc., priority 1995, dated 1997).

Key:
[1] = tested on: human tumor cell lines overexpressing p185^HER2; details: cited from earlier work
SK-BR-3 cells = assay: anti-proliferative activity with breast carcinoma SK-BR-3 cells; type: cell-based, human
[2] = blocking of the anti-proliferative activity of muMAb4D5; type: cell-based; details: monovalent Fab fragment
p185^HER2 ECD = p185^HER2 ECD binding affinity; set-up: species or system human

| Substance | growth inhibition / anti-proliferative activity against p185^HER2 overexpressing tumor cells (in words) [1] | anti-proliferative activity with SK-BR-3 cells (in words) (SK-BR-3 cells) | blocking of the anti-proliferative activity of the bivalent parent antibody muMAb4D5 (in words) [2] | anti-proliferative activity with SK-BR-3 cells (in words) (SK-BR-3 cells; listed as F(ab')2) | binding affinity for p185^HER2 ECD compared with F(ab')2 from proteolysis of intact antibody (in words) (p185^HER2 ECD; listed as F(ab')2) | binding affinity for p185^HER2 ECD compared with F(ab')2 from proteolysis of intact antibody (in words) (p185^HER2 ECD; listed as huMAb4D5-8 F(ab')2) |
| --- | --- | --- | --- | --- | --- | --- |
| huMAb4D5-8: humanized version of monoclonal antibody 4D5 against p185HER2, intact bivalent antibody derived from 293 cells | comparable anti-proliferative activity | – | – | – | – | – |
| Fab: monovalent Fab fragment of humanized anti-p185HER2 antibody huMAb4D5-8, secreted from E. coli | – | does not significantly affect the growth | possible to block the anti-proliferative activity | – | – | – |
| F(ab')2 E. coli: bivalent F(ab')2 of huMAb4D5-8 formed in vitro by coupling E. coli derived Fab'-SH with Fab'-TNB | – | identical anti-proliferative activity | – | indistinguishable | indistinguishable | identical |

Where two headings read alike, the source gives them in different places.
